## Measured affinities in a library of Ab-14 light chain variants

Target: peptide PDVDLGDISGINAS, taken from heptad repeat 2 (HR2) of SARS-CoV-2 spike.

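The starting antibody came from a phage panning campaign against this peptide. These sequences belong to a second round, designed from the earlier measurements on random variants of the parent. Their group label is 14L_En_Gen (En: ensemble of fine-tuned language models; Gen: genetic algorithm). The scFvs were displayed on barcoded MATa yeast, the peptide on MATalpha yeast. The frequency of each diploid, read from paired DNA barcodes, reflects how well the two displayed proteins bind. Read counts were normalised to the haploid input and turned into Kd by a linear fit to BCL2-family pairs of known affinity, for each replicate. Mating was done six times.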

Parent: Ab-14, a human scFv built as VH, three GGGGS repeats, VL. Only the CDRs of the light chain vary.
VH: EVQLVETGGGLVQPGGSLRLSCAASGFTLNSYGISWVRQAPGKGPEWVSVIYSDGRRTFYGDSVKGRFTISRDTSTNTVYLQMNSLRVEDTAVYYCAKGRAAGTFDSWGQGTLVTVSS
VL: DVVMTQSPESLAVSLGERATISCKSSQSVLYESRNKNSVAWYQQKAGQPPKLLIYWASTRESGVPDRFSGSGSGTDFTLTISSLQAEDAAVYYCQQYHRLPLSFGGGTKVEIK

Variants are written as CDR1, CDR2 and CDR3 of the light chain (limits as in the source). Parent: KSSQSVLYESRNKNSVA, WASTRES, QQYHRLPLS. Affinities are written as log10 Kd with Kd in nM; a lower number is a better binder. "nd" marks a missing value. The strain was present, yet no cells mated with the target were sequenced in that replicate, which points to weak or no binding. The parent sequence was in this pool as ten entries: three were never detected, three once, and four in most replicates, with averages from 0.34 to 2.37.

CDR-L1 | CDR-L2 | CDR-L3 | replicates, log10 nM | signal with controls
TISMHTSLFSQTINNVA | EVSTRES | QQYDRLPLM | 0.79 0.62 0.08 0.20 0.57 0.42 | 0 of 18
MLSQMWGTGQKVKNSVA | QASMRFN | QQYHRLPLI | nd 1.24 nd nd nd nd | 0 of 18
NLSGMTAHETVKEKNIA | ERSTREQ | QQYNRLPLS | 0.73 0.66 0.47 0.47 0.51 0.56 | 3 of 18 (2.89)
IVSQLMMWGLHAKNSIA | EAVTRYN | QQYERLPLF | 0.46 0.48 0.13 0.15 0.76 0.37 | 0 of 18
SISGFMKTLSSHKNSVA | DMTNRED | QQYDRLPLS | 0.08 0.25 -0.46 -0.49 -0.36 0.14 | 0 of 18
MLSEVLHMLGAKKNSIA | DLVMRAN | QQYHRLPLM | nd nd 2.22 1.49 1.76 2.07 | 0 of 18
SISMLLNFESKMGNNVA | QMETRIN | QQYDRLPLS | 1.19 1.13 1.91 1.58 0.73 1.40 | 0 of 18
KLASVTGTEKVHGNNVA | EMETREQ | QQYNRLPLA | 0.60 0.58 0.66 0.59 0.41 0.81 | 1 of 18 (3.88)
KLSGLMASSKFAKDNVA | ENNTRED | QQYERLPLS | nd 1.68 1.78 1.83 nd nd | 2 of 18 (2.08)
TIGGTLMYGMRNRSNVA | EVSERLN | QQYDRLPLF | 0.93 1.13 1.02 1.52 1.39 1.37 | 2 of 18 (2.57)
TIGGTLMFGMRNRSNVA | EVSQRLN | QQYDRLPLM | 1.63 2.02 0.89 1.78 1.48 1.75 | 1 of 18 (2.33)
QLYEMNYELSGKTHSVA | DNSTRGD | QQYFRLPLD | 1.91 1.77 1.79 1.42 1.56 1.67 | 2 of 18 (2.48)
TISQLHNMGTFAINSVA | QAELRND | QQYDRLPLT | nd 1.28 2.05 1.98 1.98 1.36 | 0 of 18
MVSQLMVWGLHAKNSIA | EAAMRLN | QQYDRLPLF | nd nd nd 1.82 1.19 2.90 | 0 of 18
QIYQAMHTLSQMKDNVA | DVNERGR | QQYFRLPLS | 1.21 0.70 0.85 1.43 0.45 1.09 | 0 of 18
IVSQLMLWGMHAKNSIA | EAETRIN | QQYHRLPLI | nd 1.96 nd nd nd nd | 1 of 18 (2.24)
TLYGLSNSMSINKNNVA | EMSTREP | QQYDRLPLV | 0.62 0.91 0.99 0.89 0.95 1.75 | 0 of 18
MISQVMNTLTRHGNNVA | DLENRED | QQYFRLPLS | 1.83 0.42 1.47 1.94 0.73 1.63 | 0 of 18
MVTQMAMTGMKNKRSVA | NASTREE | QQYHRLPLI | 0.45 0.33 0.20 0.45 0.60 0.43 | 1 of 18 (2.83)
MISEVMNTLTRHGNNVA | DLQNREN | QQYFRLPLS | nd nd nd nd nd 2.71 | 1 of 18 (3.28)
TLYGLTNSMSKNQNSVA | EMTTREK | QQYDRLPLI | 1.50 0.94 1.02 0.92 1.16 1.51 | 0 of 18
MISQLMNMGQFAINSVA | QATIRNN | QQYDRLPLI | nd nd 1.13 2.97 2.90 1.96 | 1 of 18 (2.08)
MLGDVAFGLSRKHNSVA | DNSTREA | QQYDRLPLS | 1.98 1.41 1.46 1.67 1.94 2.11 | 0 of 18
TLYGLSVSMSKNKNSVA | EMTTREK | QQYDRLPLF | 1.03 1.09 1.24 0.58 0.74 nd | 0 of 18
TIGGTLMYGYRNRSNVA | EVSERLN | QQYDRLPLV | 2.97 1.41 1.05 1.55 1.42 2.23 | 2 of 18 (2.06)
MLSQMWALGMKAKNSVA | QASMRFN | QQYDRLPLI | nd nd nd nd nd nd | 0 of 18
MLSEMLHMLGAKKNSIA | DLVLRAN | QQYHRLPLM | nd nd nd nd nd nd | 0 of 18
KISMLHNQTFEVSNNVA | EMVTREK | QQYNRLPLS | 2.27 2.09 1.42 1.09 2.00 2.76 | 0 of 18
IVSQLMLWGYTAKNSIA | EAQTRVN | QQYERLPLF | nd nd nd nd 2.10 nd | 0 of 18
MIHESYGLMSHKQSSIA | DNSTRED | QQYDRLPLS | 2.40 nd nd nd nd nd | 2 of 18 (3.33)
MLSEVLHMLGVQKNSIA | DLVLRAN | QQYHRLPLQ | nd nd nd nd nd nd | 1 of 18 (1.80)
SISGFMKSLSAHINSVA | DMTNRES | QQYERLPLS | 0.60 0.48 0.54 0.31 0.41 0.59 | 3 of 18 (2.37)

Excerpt, the final 2 entries:

CDR-L1,CDR-L2,CDR-L3,"replicates, log10 nM",signal with controls
MLSEVLHMLGVQKNSIA,DLVLRAN,QQYHRLPLQ,nd nd nd nd nd nd,1 of 18 (1.80)
SISGFMKSLSAHINSVA,DMTNRES,QQYERLPLS,0.60 0.48 0.54 0.31 0.41 0.59,3 of 18 (2.37)

The authors averaged sequences with at least three values out of six and counted those with two or fewer as poor binders. Values of this round are not directly comparable with the first-round values of the same sequences. Nonspecific signal, from three strains lacking the peptide, appeared in 4% of pairings of all light chain designs, centred on 2.64 (5% of these signals below 1.59); values are not corrected for it. The control count says in how many pairings with the empty strains this scFv gave a signal, with their mean in brackets.

From the AlphaSeq antibody data of Li et al. 2023 (doi:10.1038/s41467-023-39022-2), copy in the FLAb collection.